Experimental findings from patent US8722850B2, “Self-assembling peptides and their use in the formation of hydrogels” (Universita' Degli Studi di Milano Bicocca, priority 2010, dated 2014) are described below.

A short description of the series: Macro-scale scaffold formation upon exposure to PBS / neutral pH buffer. Particulars: upon exposure to PBS (1×) / neutral pH buffer. The class given is physicochemical. The source says: The tested peptides solutions appearance ranged from peptides giving clear liquid is solutions (e.g. 4, B15, B19, B25, B28, 30) to samples which become opaque in 1 to 7 days after dissolution (e.g. B3, B17, B22, B24, B27, 31) as shown in FIG. 2a (I). Most of the liquid solutions increased in viscosity over the first week after dissolution, however after ten days in water no appreciable changes happened at the macroscale.
Nonetheless, keeping constant the observation time, the storage moduli of peptide solutions previously dissolved (the day before) at 3% w/v were measured. Measurements were obtained of these peptide solutions, further diluted to 1% w/v at the same day of the experiment (unless otherwise specified), and, after addition of PBS, of the formed scaffolds.
Consider (Biotin-GGG)2-K-FSSTKT-CONH2 [B58], for which the “solid scaffold / hydrogel formation” value is “yielded solid scaffolds”.
With Biotin-GGG-AASSTKT-CONH2 [B40], the “solid scaffold / hydrogel formation” value is on record as “yielded solid scaffolds”.
The value for Biotin-GGG-AFAAAKA-CONH2 [B44] was “yielded solid scaffolds”; that for Biotin-GGG-AFAATKT--CONH2 [B41] was “yielded solid scaffolds”.
Then Biotin-GGG-AFAK-CONH2 [B57], with “yielded solid scaffolds”; and Biotin-GGG-AFASAKA-CONH2 [B42], with “yielded solid scaffolds”.
Then Biotin-GGG-AFASTKT-GIKVAV-CONH2 [B54], with “yielded solid scaffolds”; and Biotin-GGG-AFASTKT-GRGD-CONH2 [B52], with “yielded solid scaffolds”.
For Biotin-GGG-PFCSTKT-CONH2 [B48], the “solid scaffold / hydrogel formation” value was “yielded solid scaffolds”.
Then Biotin-GGG-PFSATKT-CONH2 [B46], with “yielded solid scaffolds”.
Regarding Biotin-GGG-PFSCTKT-CONH2 [B47], the “solid scaffold / hydrogel formation” value was “yielded solid scaffolds”.
Then Biotin-GGG-PFSSAKT-CONH2 [B45], with “yielded solid scaffolds”.
For Biotin-GGG-PFSSTAT-CONH2 [B43], the “solid scaffold / hydrogel formation” value is on record as “yielded solid scaffolds”.
The value for Biotin-GGG-PFSSTKT-GIKVAV-CONH2 [B53] was “yielded solid scaffolds”.
For Biotin-GGG-PYSSTKT-CONH2 [B39], the “solid scaffold / hydrogel formation” value is reported as “yielded solid scaffolds”.
